Compound activity as filed in PubChem.
Hits are enriched below; roughly 0.39% of the tested compounds scored in any of these assays.
CCT chaperon mod: modulators of cytosolic chaperonin (CCT/TRiC) activity; purified chaperonin ATPase assay, HTRF ADP detection, 30 min; activity change, % (no concentration beside the values), hits read low; 360,000 compounds, 0.3% hits; AID 651819; in the data active means activity change below about -30%; further: on the % scale 0 is the no-effect control and ±100 the full control effect
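First, chaperonin was dispensed at 40 nM or 20 nM final depending on batch activity. Next, compounds were pinned at 76 uM and ATP added at 10 uM. After 30 min at 37 °C, ADP detection reagents ran 30 min at ambient temperature.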
Rango dissoc inh: inhibitors of RanGTP-induced Rango-importin beta complex dissociation. 340,000 compounds, 0.071% hits. Biochemical FRET Rango-importin beta, RanGTP-induced dissociation. Potency, µM (titrated, usually from 46.1 µM), for inactives: at the highest dose activity change, negative = inhibition; further: potency means the concentration at half of the fitted maximal effect; % of control where 0% means no effect; nearly all actives have a fitted effect of over 45% in size
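Rango (0.1 uM)–importin beta (0.25 uM) complex; RanGTP-RCC1 trigger; 45 min RT; CFP/YFP FRET read.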
Mm-Cpn inhibitor: inhibitors of Methanococcus maripaludis chaperonin TRiC (MmCpn); purified Mm-Cpn ATPase, ADP Transcreener TR-FRET; Potency, µM (highest dose often 76.9 µM), without a hit: top-dose activity, negative = inhibition, hits mostly inhibitors; 330,000 compounds, 0.031% hits; AID 504842; active means well fitted inhibition curve with a large enough effect; inconclusive means small, poorly fitted or top-dose-only effect; further: potency means the concentration at half of the fitted maximal effect; on the % scale 0 is the no-effect control and ±100 the full control effect; nearly all actives have a fitted effect of over 80% in size
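ATP (10 uM final) was added to archaeal chaperonin (25 nM final) after 10 min exposure to test compound at 37°C; after 30 min further incubation, ADP was detected by competitive TR-FRET.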
Rango-impB inh: inhibitors of Rango-importin beta complex formation | Q14974 | Rango CFP/YFP FRET sensor + importin beta, 45 min | Potency, µM (titrated, usually from 92.2 µM), for the others: at the top dose inhibition of complex formation | 340,000 compounds, 0.031% hits;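 further: potency means the concentration at half of the fitted maximal effect; 0% = DMSO wells and 100% = buffer wells lacking importin beta; nearly all actives have a fitted effect of over 15% in size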
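FRET biosensor (snurportin 1 IBB flanked by EYFP and cerulean), 50 nM, with compound 5 min, then 0.125 microM importin beta in PBS, 1 mM DTT, 0.02% Tween-20, 0.1% BSA. CFP/YFP ratio read after 45 min at room temperature; pre-read flags interference.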
The depositor's hits bear a star; ? = inconclusive; . = not tested or not shown; [ ] = another dose, or the depositor's remark. Unless noted, the call rests on the fitted dose curve.

SMILES | CCT chaperon mod | Rango dissoc inh | Mm-Cpn inhibitor | Rango-impB inh
COc1cccc(NC(=O)CN(C)C(=O)c2c(C)noc2C)c1 | -1.7 | 9.3% | -11.3% | -2.7%
COc1cccc(NC(=O)CN(C)C(=O)c2cc(C)oc2C)c1 | -30.5* | 0.2% | -0.1% | -3.0%
Cc1ccc2cccc(SCC(=O)Nc3ccc(F)cc3)c2n1 | -73.8* | 12.8% | -5.5% | 0.5%
Cc1ccc2cccc(SCC(=O)NCc3ccco3)c2n1 | -5.2 | 18.2% | -3.4% | -0.8%
Nc1nc(O)c(N=Nc2ccc(S(N)(=O)=O)cc2)c(=O)[nH]1 | -4.9 | -14.0% | -0.2% | -3.9%
NS(=O)(=O)c1ccc(N=Nc2c[nH]c(=O)c(O)c2)cc1 | -0.8 | 23.1µM* | -10.5% | ?
Cc1cc2c(c(=O)o1)C1(C(=O)N(CC(=O)O)c3ccccc31)C(C#N)=C(N)O2 (stereo unspecified) | -1.3 | 14.6µM*[inhibitor] | -2.0% | ?
COc1ccc(Cc2nc3ccc(C(=O)N(C)Cc4cc(C)[nH]n4)cc3o2)cc1OC | -70.1* | 1.0% | -8.3% | 0.6%
Cc1cc(CN(C)C(=O)c2ccc3nc(Cc4ccccc4F)oc3c2)n[nH]1 | 0.4 | -10.8% | 0.9% | 0.0%
COc1ccc(N2CC(C(=O)N3CCC4(CC3)CC(=O)c3ccccc3O4)CC2=O)cc1 (stereo unspecified) | -56.3* | -6.6% | 2.5% | -4.7%
Cc1ccc(N2CC(C(=O)N3CCC4(CC3)CC(=O)c3ccccc3O4)CC2=O)cc1 (stereo unspecified) | -0.2 | 14.6% | -0.9% | -3.8%
CCc1cccc(C)c1NC(=O)CN1CCN(S(=O)(=O)c2ccc(C(C)(C)C)cc2)CC1 | -0.2 | -24.8% | 0.2% | 0.8%
Cc1cc(-c2ccc(C(C)C)c(S(=O)(=O)Nc3cc(C)on3)c2)on1 | -1.6 | -15.7% | 0.2% | 3.2%
COc1cccc2sc3cc(NCc4ccc5c(c4)OCO5)ccc3c(=O)c12 | -0.2 | 20.6µM* | -25.6% | ?
Cc1ccc(NS(=O)(=O)c2cccc3nsnc23)cc1[N+](=O)[O-] | -0.3 | 0.3% | 2.2% | -0.5%

Four structures already listed, ordered by molecular weight, lowest first.
SMILES | CCT chaperon mod | Rango dissoc inh | Mm-Cpn inhibitor | Rango-impB inh
NS(=O)(=O)c1ccc(N=Nc2c[nH]c(=O)c(O)c2)cc1 | -0.8 | 23.1µM* | -10.5% | ?
Nc1nc(O)c(N=Nc2ccc(S(N)(=O)=O)cc2)c(=O)[nH]1 | -4.9 | -14.0% | -0.2% | -3.9%
Cc1cc(-c2ccc(C(C)C)c(S(=O)(=O)Nc3cc(C)on3)c2)on1 | -1.6 | -15.7% | 0.2% | 3.2%
Cc1cc2c(c(=O)o1)C1(C(=O)N(CC(=O)O)c3ccccc31)C(C#N)=C(N)O2 (stereo unspecified) | -1.3 | 14.6µM*[inhibitor] | -2.0% | ?

Remaining list, next part
SMILES | CCT chaperon mod | Rango dissoc inh | Mm-Cpn inhibitor | Rango-impB inh
COc1ccccc1C1c2[nH]c3ccccc3c2C[C@H]2C(=O)N(C3CCN(Cc4ccccc4)CC3)CC(=O)N12 (stereo partly specified) | 0.8 | -11.7% | -1.0% | -2.0%
CN(Cc1ccc(Cl)cc1)C(=O)c1ccccc1SCC(=O)N1CCCC1 | -49.7* | -9.5% | 1.3% | -1.1%
CC(C)(CCC(=S)N1CCOCC1)C1CCCCC1 | -39.8* | -19.6% | -1.6% | 0.4%
C#CCOCCOCCOCCNc1nc(N2CCN(C(=O)CCCCCCCCCCNC(=O)[C@H](CCCCN)n3cc(CCO)nn3)CC2)nc(N2CCN(C(=O)CCCCCCCCCCNC(=O)[C@H](CCCN=C(N)N)n3cc(C[C@@H](C)CC)nn3)CC2)n1 | -1.8 | ? | -10.5% | 65.1µM*
C#CCOCCOCCOCCNc1nc(N2CCN(C(=O)[C@H](CCCCN)n3cc([C@@H](N)[C@H](C)CC)nn3)CC2)nc(N2CCN(C(=O)[C@H](CCCCN)n3cc([C@@H](N)CC(N)=O)nn3)CC2)n1 | 1.5 | -14.5% | -0.2% | ?
C#CCOCCOCCOCCNc1nc(N2CCN(C(=O)[C@H](CCCCN)n3cc([C@@H](N)C(C)CC)nn3)CC2)nc(N2CCN(C(=O)[C@H](CCCCN)n3cc([C@@H](N)CC(C)C)nn3)CC2)n1 (stereo partly specified) | -0.7 | 1.6% | . | 51.7µM*
C#CCOCCOCCOCCNc1nc(N2CCN(C(=O)[C@H](CCCN=C(N)N)n3cc(C(N)[C@H](C)CC)nn3)CC2)nc(N2CCN(C(=O)[C@H](CCCN=C(N)N)n3cc(C(N)[C@@H](C)CC)nn3)CC2)n1 (stereo partly specified) | -0.1 | ? | -2.0% | 65.1µM*
CO/N=C/CC(=O)c1ccc([N+](=O)[O-])c(CS(=O)(=O)c2ccc(Cl)cc2)c1 | -0.2 | 9.4% | -0.7% | -0.8%
Cc1ccc(C)c(N2N=C(C(=O)OCC(=O)N(C)c3ccccc3)CCC2=O)c1 | 1.0 | 3.4% | 2.7% | 3.0%
COc1ccc(CCN2CC(C(=O)N3CCN(C(C)=O)CC3)CCC2=O)cc1 (stereo unspecified) | -0.8 | -3.0% | 2.0% | -1.8%
O=C(NC(C(=O)N/N=C/c1cc([N+](=O)[O-])ccc1O)c1n[nH]c(=O)c2ccccc12)c1ccccc1 (stereo unspecified) | -1.7 | 16.4µM* | 1.5% | ?
CCCCCOCC1CC(C/C(C)=N/NC(N)=O)(C(=O)OCC)C(=O)O1 (stereo unspecified) | -41.2* | -13.0% | -3.9% | -0.9%
CCOC(=O)C1(C/C(C)=N/NC(N)=O)CC(C)OC1=O (stereo unspecified) | -1.5 | 13.4% | -1.9% | -1.6%
COC[C@H](NS(=O)(=O)c1ccc(Br)cc1F)[C@@H](O)c1ccccc1 | -0.7 | . | . | .
Cc1ccc2cc(C(c3nnnn3Cc3ccccc3)N3CCc4ccccc43)c(=O)[nH]c2c1 (stereo unspecified) | 0.7 | 23.1µM* | -2.9% | ?
CCCCC1S/C(=N/N=C/c2ccco2)NC1=O (stereo unspecified) | -41.9* | 23.4% | 0.8% | -1.2%
CCCC1S/C(=N/N=C/c2ccco2)NC1=O (stereo unspecified) | 1.0 | -1.4% | 1.2% | -1.2%
C=C1C=C(C(F)F)n2ncc(C(=O)Nc3ccc(C(C)CC)cc3)c2N1 (stereo unspecified) | . | . | 1.2% | .
Cc1cc(C(=O)Nc2nnc(C(F)(F)F)s2)cs1 | -33.7* | 1.3% | -1.2% | ?
CC(=O)Nc1ccc(CCCCc2ccc(NC(C)=O)cc2)cc1 | 0.6 | -6.8% | . | -1.0%
Cc1cccc(-n2c(O)c(C=Nc3ccccc3O)c3ccccc3c2=O)n1 | 0.2 | ? | 1.0% | ?
Cc1cccc(-n2c(O)c(/C=N/NC(=O)c3ccccc3Cl)c3ccccc3c2=O)n1 | -46.4* | ? | -2.2% | ?
CCOC(=O)c1cc(C(C)(C)C)oc1CN | 0.7 | 22.8% | 0.5% | -2.4%
CCOC(=O)c1cc(C(C)(C)C)oc1CNC(=O)c1c(C)oc2c1CCCC2 | -53.5* | -7.1% | -2.4% | 0.9%
Fc1cccc(CNc2ncnc3ccc(-c4cccnc4)cc23)c1 | . | . | -0.8% | .
O=C1C2=C(C(c3ccccc3)=NCCN2)C(c2cccc([N+](=O)[O-])c2)N1c1ccccc1 (stereo unspecified) | -0.6 | -11.5% | -0.8% | 2.8%
COc1ccc(C2C3=C(NCCN=C3c3ccccc3)C(=O)N2c2ccccc2)c(OC)c1 (stereo unspecified) | -59.6* | -12.0% | -2.7% | 4.1%
Cc1nnc(SCC(=O)Nc2cc(Cl)ccc2Cl)n1CC1CCCO1 (stereo unspecified) | -1.8 | 8.2% | -2.7% | -0.5%
COc1ccccc1NC(=O)Nc1cccc(C(=O)O)c1 | -50.2* | 10.1% | 2.1% | -1.4%

Already shown: 2 of the compounds above.
SMILES | CCT chaperon mod | Rango dissoc inh | Mm-Cpn inhibitor | Rango-impB inh
CCOC(=O)c1cc(C(C)(C)C)oc1CN | 0.7 | 22.8% | 0.5% | -2.4%
CCOC(=O)c1cc(C(C)(C)C)oc1CNC(=O)c1c(C)oc2c1CCCC2 | -53.5* | -7.1% | -2.4% | 0.9%
